Read-outs that look alike come from different tables or passages of the source.
What was measured:
[1] = biological target: T1, PGD2 receptor (Homo sapiens, UniProt Q13258); test: Antagonistic activity against PGD2 receptor using human platelet (inhibition of PGD2-induced cAMP increase)
Description: Experiment 3 Evaluation of Antagonistic Activity Against PGD2 Receptor
Receptor Using Human Platelet
Peripheral blood was collected from a healthy volunteer using a syringe in which 1/9 volume of a citric acid/dextrose solution was previously added. The sample was subjected to centrifugation at 1200 rpm for 10 min to obtain the supernatant (PRP: platelet rich plasma). The resultant PRP was washed 3 times with a washing buffer and the number of platelets was counted with a micro cell counter. A suspension adjusted to contain the platelets at a final concentration of 5×10^8/ml was warmed at 37° C., then subjected to the pre-treatment with 3-isobutyl-1-methylxanthine (0.5 mM) for 5 min. To the suspension was added a test compound diluted at various concentration, and 10 minutes later, 0.1 μM PGD2 was added to induce the reaction 2 minutes later, hydrochloric acid was added to terminate the reaction. The platelet was destroyed with an ultrasonic homogenizer. After centrifugation, the cAMP in the supernatant was determined by radioimmunoassay. PGD2 receptor antagonism of a drug was evaluated as follows: the inhibition rate regarding cAMP increased by the addition of PGD2 was determined at each concentration, and the concentration of the drug required for 50% inhibition (IC50) was calculated.

Amino acid sequences for entries named in this document (tags omitted).
UniProt Q13258, whole entry: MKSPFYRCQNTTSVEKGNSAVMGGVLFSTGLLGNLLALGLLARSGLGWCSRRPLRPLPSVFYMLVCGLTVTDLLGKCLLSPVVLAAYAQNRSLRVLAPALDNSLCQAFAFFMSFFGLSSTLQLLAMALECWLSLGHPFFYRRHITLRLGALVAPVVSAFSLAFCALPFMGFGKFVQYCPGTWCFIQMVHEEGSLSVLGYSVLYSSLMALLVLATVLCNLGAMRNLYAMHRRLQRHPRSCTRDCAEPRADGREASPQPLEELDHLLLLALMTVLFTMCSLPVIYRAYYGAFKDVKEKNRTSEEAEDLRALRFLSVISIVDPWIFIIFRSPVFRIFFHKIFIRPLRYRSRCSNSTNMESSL
UniProt P21731, whole entry: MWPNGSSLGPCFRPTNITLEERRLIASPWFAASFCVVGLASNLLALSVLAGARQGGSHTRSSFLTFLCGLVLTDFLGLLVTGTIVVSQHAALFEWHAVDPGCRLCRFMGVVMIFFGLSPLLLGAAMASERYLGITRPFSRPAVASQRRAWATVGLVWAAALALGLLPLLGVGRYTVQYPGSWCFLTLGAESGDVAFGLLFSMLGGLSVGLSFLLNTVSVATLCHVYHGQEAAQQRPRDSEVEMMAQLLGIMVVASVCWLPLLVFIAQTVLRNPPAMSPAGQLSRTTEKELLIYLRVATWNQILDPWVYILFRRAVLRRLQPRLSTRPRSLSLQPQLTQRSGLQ

[2] = biological target: TXA2 receptor (Homo sapiens, UniProt P21731); test: Binding activity to TXA2 receptor ([3H](+)-S-145 sodium salt, human platelet membrane fraction)
[3] = biological target: T1, PGD2 receptor; test: Binding activity to PGD2 receptor ([3H]PGD2, human platelet membrane fraction)
Description: Experiment 1 Binding Activity to PGD2 Receptor
(1) Preparation of Human Platelet Membrane Fraction
Blood was collected using a plastic syringe containing 3.8% sodium citrate from the vein of healthy volunteers (adult male and female), then put into a plastic test tube and mixed by slow-reversion. The sample was then centrifuged at 1800 rpm, for 10 min at room temperature, and the supernatant containing PRP (platelet-rich plasma) was collected. The PRP was re-centrifuged at 2300 rpm, for 22 min at room temperature to obtain platelets. The platelets were homogenized using a homogenizer (Ultra-Turrax) followed by centrifugation 3 times at 20,000 rpm, 10 min at 4° C. to obtain a platelet membrane fraction. After protein determination, the membrane fraction was adjusted to 2 mg/ml and preserved in a refrigerator at −80° C. until using for the binding test.
(2) Binding to PGD2 Receptor
To a binding-reaction solution (50 mM Tris/HCl, pH 7.4, 5 mM MgCl2) (0.2 ml) were added the human platelet membrane fraction (0.1 mg) and 5 nM [^3H]PGD2 (115 Ci/mmol), and the mixture was reacted at 4° C. for 90 min. After the reaction, the mixture was filtered through a glass fiber filter paper and washed several times with cooled physiological saline, then the radioactivity retained on the filter paper was measured. The specific-binding ratio was calculated by subtracting the non-specific binding ratio which is the radioactivity similarly measured in the presence of 10 μM PGD2 from the total binding. The inhibitory activity of each compound was expressed as the concentration required for 50% inhibition (IC50), which was determined by depicting a substitution curve by plotting the binding ratio (%) in the presence of each compound, where the binding ratio in the absence of a test compound is 100%.

[4] = Change of plasma concentration of drug in rat (half life of the disappearance after i.v. administration); details: Jcl-SD male rats, 0.5 to 2 mg/kg intravenously, unchanged compound
Description: Experiment 4 Change of Plasma Concentration of Drug in Rat
Compound (0.5 to 2 mg/kg) was administered intravenously to Jcl-SD male rats. The concentration of the unchanged compound was measured at 2, 5, 15, 30, 60, 120, and 240 min after the administration by the use of HPLC (determination limit; 0.05 μg/ml) and LC/MS/MS (determination limit; 0.001 μg/ml) and the half life of the disappearance was calculated.

[5] = test system: TxA2 receptor; test: Acceleration of vascular permeability of conjunctiva induced by U-46619 (Evans blue dye leakage)
[6] = test system: Eosinophil Number in Bronchoalveolar Lavage Fluid; test: Antigen-induced increase in the eosinophil number in bronchoalveolar lavage fluid
Description: Antigen-Induced Increase in the Eosinophil Number in Bronchoalveolar Lavage Fluid.
Bronchoalveolar lavage was performed with 10 mL of saline, after the animals were sensitized and challenged with antigen. The number of total cells in the recovered fluid was stained with Türk and counted using hemocytometer. *: P<0.05, **:P<0.01 vs Vehicle(Dunnett's test), ^##: P<0.01 vs Vehicle(Student's t test). ( ): inhibition %.

[7] = test system: PGD2 receptor; test: Acceleration of vascular permeability of conjunctiva induced by PGD2 (Evans blue dye leakage)
Description: Acceleration of Vascular Permeability of Conjunctiva Induced by PGD2 and U-46619
Using male Hartley guinea pigs, PGD2- and TxA2 receptor-mediated increase in conjunctival vascular permeability was produced by instillation of each 10 μl solution of either 0.1% PGD2 or U-46619 (TXA2 receptor agonist) to the both eyes without anesthetization. Immediately after that, Evans blue dye (20 mg/kg) was intravenously injected. 30 min after the challenge, guinea pigs were sacrificed by bleeding under anesthesia with Pentobarbital (30 mg/kg, i.p.) and the tissue of conjunctiva was removed. The dye leaked into the tissue was extracted in formamide 3 ml at 60° C. for more than 24 h, and then centrifuged. The absorbance of the supernatant was measured at 620 nm. The amount of dye was calculated from the calibration curve of Evans blue dye. Each compound was suspended in 0.5% methyl-cellulose and administrated orally at 1 h before the challenge. The antagonistic activity was evaluated by the inhibition ratio against the dye leaked into conjunctiva caused by PGD2 or U-46619 at each dose and then a 50% effective dose of inhibition (ED50 value) of each compound was calculated.

[8] = test system: Male Hartley guinea pigs; test: Antigen-induced bronchial hyperresponsiveness (acetylcholine PD200, OVA-sensitized guinea pigs)
Description: Comparative Experiment 2 Antigen-Induced Bronchial Hyperresponsiveness
Male Hartley guinea pigs were actively sensitized to ovalbumin (OVA) by inhalation of aerosolized solution of 1% ovalbumin twice at a week interval. One week after the second sensitization, the animals were treated with antihistamine, diphenhydramine (10 mg/kg, i.p.), and then challenged with 1% OVA aerosol for 5 min. Twenty four hours later, acetylcholine at doses at 3.13, 6.25, 12.5, 25, 50 and 100 micro g/kg was sequentially injected into the animals which were anesthetized with pentobarbital (30 mg/kg, i.p.). The bronchoconstriction induced by each dose of acetylcholine was monitored by the modified method of Konzett-Rössler technique, and made a dose-response curve of acetylcholine. Using the dose-response curve, the dose required for 200% increase in bronchoconstriction from baseline (PD200) was calculated in each animal and used as an indication of bronchial responsiveness. Compounds were orally administered 1 hour before antigen challenge. **: P<0.01 vs Vehicle(Dunnett's test), ^##: P<0.01 vs Vehicle(Student's t test).

[9] = read-out: Inhibitory activity for the increase of cAMP caused by PGD2 in human platelet IC50, human platelet, 0.1 μM PGD2
[10] = read-out: Binding activity to TXA2 receptor in human platelet membrane fraction IC50, human platelet membrane fraction, 2 nM [3H](+)-S-145 sodium salt
[11] = read-out: Binding activity to PGD2 receptor in human platelet membrane fraction IC50, human platelet membrane fraction
[12] = summary of Table 80, oral 1 h before challenge, guinea pig
[13] = 10 mg/kg, bronchoalveolar lavage fluid after antigen challenge

Row | Compound | IC50 [1, 9] [nM] | IC50 [2, 10] [nM] | IC50 [3, 11] [nM] | further results
1 | O=C(O)CCCCCC[C@H]1[C@@H]2CC[C@@H](C2)[C@@H]1NC(=O)c1ccc(S(=O)(=O)c2cccs2)s1 | 18 | 3 | 73 | –
2 | Cc1cccn1S(=O)(=O)c1ccc(C(=O)N[C@@H]2[C@@H](C/C=C\COCC(=O)O)C[C@H]3C[C@@H]2C3(C)C)s1 | 20 | 2.5 | 6.5 | –
3 | CC1(C)[C@H]2C[C@H](CCCCOCC(=O)O)[C@@H](NC(=O)c3ccc(S(=O)(=O)c4cccs4)s3)[C@@H]1C2 | 73 | 1.8 | 24 | –
4 | CC1(C)[C@H]2C[C@H](CCCCC(=O)O)[C@@H](NC(=O)c3ccc(S(=O)(=O)n4cccc4)s3)[C@@H]1C2 | 66 | 1.2 | 27 | –
5 | O=C(O)CCCCCC[C@H]1[C@@H]2CC[C@@H](C2)[C@@H]1NC(=O)c1ccc(S(=O)(=O)n2cccc2)s1 | 35 | 4.6 | 7.6 | –
6 | Cc1cccn1S(=O)(=O)c1ccc(C(=O)N[C@@H]2[C@@H](CCCCCC(=O)O)C[C@H]3C[C@@H]2C3(C)C)s1 | 100 | 26 | 47 | –
7 | O=C(O)COCCCC[C@H]1[C@@H]2CC[C@@H](C2)[C@@H]1NC(=O)c1csc2c(Cc3ccccc3)cccc12 | 26 | 21 | – | half life of the disappearance [4]: 38.4 min
8 | CC1(C)[C@H]2C[C@H](CCCCOCC(=O)O)[C@@H](NC(=O)c3ccc(Sc4cccs4)s3)[C@@H]1C2 | 21 | 27 | – | half life of the disappearance [4]: 92.6 min
9 | Cc1cccn1S(=O)(=O)c1ccc(C(=O)N[C@@H]2[C@@H](CCCCCCC(=O)O)C[C@H]3C[C@@H]2C3(C)C)s1 | 57 | 4.2 | 6.2 | –
10 | Cc1cccn1S(=O)(=O)c1ccc(C(=O)N[C@@H]2[C@@H](CCCCC(=O)O)C[C@H]3C[C@@H]2C3(C)C)s1 | 17 | 0.6 | 5.3 | –
11 | CC1(C)[C@H]2C[C@H](CCCC/C=C/C(=O)O)[C@@H](NC(=O)c3ccc(Sc4cccs4)s3)[C@@H]1C2 | 15 | 15 | – | half life of the disappearance [4]: 67.0 min
12 | Cc1cccn1S(=O)(=O)c1ccc(C(=O)N[C@@H]2[C@@H](C/C=C\CCCC(=O)O)C[C@H]3C[C@@H]2C3(C)C)cc1 | 0.3 | 30 | 7.9 | –
13 | Cc1cccn1S(=O)(=O)c1ccc(C(=O)N[C@@H]2[C@@H](CCCCOCC(=O)O)C[C@H]3C[C@@H]2C3(C)C)s1 | 13 | 2.2 | 1.3 | IC50 ([1]; read-out: Experiment 3 Antagonistic activity against PGD2 receptor IC50, comparative experiment in accordance with Experiment 3): 13 nM; ED50 TXA2 (U-46619) ([5]; oral, 1 h before challenge, 0.1% U-46619 instillation, conjunctival dye leakage, guinea pigs): 0.083 mg/kg; inhibition of the increase in vascular permeability in conjunctiva caused by U-46619 [5, 12]: showed both responses; Total cells [6, 13]: 18.29 ± 1.46 × 10^6 cells/animal; inhibition % (total cells in bronchoalveolar lavage fluid) [6, 13]: 36%; suppression of eosinophil infiltration ([6]; summary of Table 77 to Table 79, bronchoalveolar lavage fluid): significantly suppressed; IC50 ([2]; read-out: Experiment 2 Antagonistic activity against TXA2 receptor IC50, comparative experiment in accordance with Experiment 2): 2.2 nM; ED50 PGD2 ([7]; oral, 1 h before challenge, 0.1% PGD2 instillation, conjunctival dye leakage, guinea pigs): 0.043 mg/kg; inhibition of the increase in vascular permeability in conjunctiva by the stimulation with PGD2 [7, 12]: showed both responses; Log PD200 ([8]; 10 mg/kg orally 1 hour before antigen challenge, acetylcholine dose for 200% increase in bronchoconstriction, 24 h after OVA challenge): 1.49 ··; inhibition of the induction of bronchial hyperresponsiveness ([8]; summary of Table 74 to Table 76, oral, guinea pig): suppressed; IC50 ([3]; read-out: Experiment 1 Antagonistic activity against PGD2 receptor IC50, comparative experiment in accordance with Experiment 1): 1.3 nM
